In US11958855B2, “Aurora kinase inhibitors for inhibiting mitotic progression” (Millennium Pharmaceuticals, Inc., priority 2006, dated 2024) one finds IC50 data, which are given here for one molecule.

For the assay, the target named is T1, Aurora A (Homo sapiens, UniProt O14965).
T1 construct: Human tumor cells (HCT-116, obtained from ATCC) were grown on 96-well dishes; host or cells: HCT-116
T1 sequence (O14965 1-403): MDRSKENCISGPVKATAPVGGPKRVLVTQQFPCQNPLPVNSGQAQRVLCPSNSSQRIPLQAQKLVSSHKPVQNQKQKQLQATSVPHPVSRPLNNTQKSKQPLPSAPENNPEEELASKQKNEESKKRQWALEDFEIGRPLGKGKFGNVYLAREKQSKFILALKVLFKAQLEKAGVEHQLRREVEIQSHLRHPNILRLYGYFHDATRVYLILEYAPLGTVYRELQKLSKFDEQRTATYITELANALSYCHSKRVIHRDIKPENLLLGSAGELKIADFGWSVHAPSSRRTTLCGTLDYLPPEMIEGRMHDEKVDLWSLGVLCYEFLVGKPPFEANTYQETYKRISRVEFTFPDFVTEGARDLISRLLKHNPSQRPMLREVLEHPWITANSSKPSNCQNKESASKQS
Kind of assay: pT288 Aurora A autophosphorylation assay. Format: cell-based. To be noted: HCT-116 cells, 60 minutes treatment.

Take `O=C(O)c1ccc(Nc2ncc3c(n2)-c2ccc(Cl)cc2C(c2ccccc2F)=NC3)cc1` [i]: the IC50 (in general, the point on the concentration scale where inhibition reaches its midpoint) came out at 180 nM.
